{
  "sequences": {"note": "Sequences of proteins named here, by UniProt entry; tags and fusion partners are left off. A change or cut given only in a name is not applied to a line headed by its entry.", "UniProt O15297": "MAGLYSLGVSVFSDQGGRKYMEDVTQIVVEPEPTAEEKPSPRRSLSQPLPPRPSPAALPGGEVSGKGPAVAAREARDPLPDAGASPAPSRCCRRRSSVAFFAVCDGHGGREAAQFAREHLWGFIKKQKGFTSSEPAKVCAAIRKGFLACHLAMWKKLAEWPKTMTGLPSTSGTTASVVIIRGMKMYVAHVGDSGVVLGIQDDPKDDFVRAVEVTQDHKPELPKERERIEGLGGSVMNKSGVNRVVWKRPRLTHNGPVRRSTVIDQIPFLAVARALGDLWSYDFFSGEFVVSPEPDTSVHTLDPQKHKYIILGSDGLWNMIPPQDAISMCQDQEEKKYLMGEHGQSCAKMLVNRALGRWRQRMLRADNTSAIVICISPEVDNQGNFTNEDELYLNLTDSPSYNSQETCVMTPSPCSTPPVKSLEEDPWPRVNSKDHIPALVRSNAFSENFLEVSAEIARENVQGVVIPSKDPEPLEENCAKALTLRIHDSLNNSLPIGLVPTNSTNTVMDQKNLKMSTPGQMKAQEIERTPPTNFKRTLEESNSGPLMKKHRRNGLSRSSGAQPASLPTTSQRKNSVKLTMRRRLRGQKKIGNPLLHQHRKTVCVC", "UniProt Q99828": "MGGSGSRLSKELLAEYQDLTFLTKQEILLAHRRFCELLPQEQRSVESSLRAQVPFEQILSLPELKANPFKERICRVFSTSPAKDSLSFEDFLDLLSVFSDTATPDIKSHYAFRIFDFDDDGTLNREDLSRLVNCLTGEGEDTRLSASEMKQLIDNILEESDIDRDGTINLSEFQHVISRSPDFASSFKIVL", "UniProt P10635, whole entry, looked up": "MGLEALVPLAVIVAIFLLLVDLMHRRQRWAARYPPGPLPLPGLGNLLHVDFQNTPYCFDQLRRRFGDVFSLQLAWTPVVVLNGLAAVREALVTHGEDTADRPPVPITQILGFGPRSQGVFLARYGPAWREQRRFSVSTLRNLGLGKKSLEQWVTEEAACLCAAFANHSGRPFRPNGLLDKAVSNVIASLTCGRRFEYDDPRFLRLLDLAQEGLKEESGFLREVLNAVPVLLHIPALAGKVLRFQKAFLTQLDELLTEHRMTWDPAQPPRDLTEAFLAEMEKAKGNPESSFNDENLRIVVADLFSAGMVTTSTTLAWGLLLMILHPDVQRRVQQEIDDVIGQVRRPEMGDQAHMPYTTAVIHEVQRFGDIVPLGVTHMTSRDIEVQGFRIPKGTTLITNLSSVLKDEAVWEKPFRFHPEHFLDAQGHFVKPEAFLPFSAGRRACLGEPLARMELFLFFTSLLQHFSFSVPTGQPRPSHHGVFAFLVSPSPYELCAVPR", "UniProt Q9R1A7": "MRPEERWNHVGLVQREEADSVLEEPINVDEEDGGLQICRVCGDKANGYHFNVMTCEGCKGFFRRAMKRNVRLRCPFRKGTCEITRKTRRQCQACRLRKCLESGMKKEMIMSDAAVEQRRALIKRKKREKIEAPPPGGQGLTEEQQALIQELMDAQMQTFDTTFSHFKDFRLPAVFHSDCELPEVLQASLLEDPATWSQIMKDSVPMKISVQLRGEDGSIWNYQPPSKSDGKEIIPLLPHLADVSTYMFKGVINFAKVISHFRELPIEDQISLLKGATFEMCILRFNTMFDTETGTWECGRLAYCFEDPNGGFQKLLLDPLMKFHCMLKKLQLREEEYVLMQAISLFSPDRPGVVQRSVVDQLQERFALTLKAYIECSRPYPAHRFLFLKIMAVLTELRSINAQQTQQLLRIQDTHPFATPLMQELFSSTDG", "UniProt P00883": "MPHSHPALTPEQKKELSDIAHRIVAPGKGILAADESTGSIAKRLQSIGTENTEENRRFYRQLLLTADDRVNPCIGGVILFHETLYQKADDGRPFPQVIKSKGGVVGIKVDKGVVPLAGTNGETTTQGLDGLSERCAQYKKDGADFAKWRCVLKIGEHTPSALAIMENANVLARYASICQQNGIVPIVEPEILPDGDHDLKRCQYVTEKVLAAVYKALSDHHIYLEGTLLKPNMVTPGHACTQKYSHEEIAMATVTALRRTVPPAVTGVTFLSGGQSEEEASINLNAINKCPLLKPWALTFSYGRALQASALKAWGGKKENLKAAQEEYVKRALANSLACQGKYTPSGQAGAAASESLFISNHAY", "UniProt O95398": "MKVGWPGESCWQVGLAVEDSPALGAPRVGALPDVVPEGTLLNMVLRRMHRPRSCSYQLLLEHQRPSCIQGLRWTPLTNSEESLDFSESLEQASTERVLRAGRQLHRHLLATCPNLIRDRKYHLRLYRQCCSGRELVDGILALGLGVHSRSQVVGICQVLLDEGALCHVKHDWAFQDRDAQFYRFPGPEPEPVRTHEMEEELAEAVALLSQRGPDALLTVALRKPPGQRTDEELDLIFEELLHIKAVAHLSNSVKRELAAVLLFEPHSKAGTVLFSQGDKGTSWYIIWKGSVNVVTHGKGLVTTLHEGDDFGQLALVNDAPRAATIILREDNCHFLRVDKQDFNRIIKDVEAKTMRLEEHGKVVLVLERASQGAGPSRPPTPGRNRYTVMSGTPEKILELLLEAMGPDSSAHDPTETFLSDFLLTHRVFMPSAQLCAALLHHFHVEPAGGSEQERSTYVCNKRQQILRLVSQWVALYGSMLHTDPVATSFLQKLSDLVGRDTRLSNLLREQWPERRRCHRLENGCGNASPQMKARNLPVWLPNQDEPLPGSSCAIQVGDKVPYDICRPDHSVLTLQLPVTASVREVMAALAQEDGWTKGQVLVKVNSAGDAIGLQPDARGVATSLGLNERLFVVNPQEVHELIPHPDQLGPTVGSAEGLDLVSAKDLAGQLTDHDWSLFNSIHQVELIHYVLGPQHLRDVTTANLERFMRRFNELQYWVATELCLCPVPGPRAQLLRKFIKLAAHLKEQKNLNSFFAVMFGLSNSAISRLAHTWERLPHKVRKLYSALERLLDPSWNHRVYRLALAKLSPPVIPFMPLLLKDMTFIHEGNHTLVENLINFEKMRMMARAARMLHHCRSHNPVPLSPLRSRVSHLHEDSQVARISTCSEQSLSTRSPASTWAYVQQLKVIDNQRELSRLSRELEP", "UniProt Q8WZA2": "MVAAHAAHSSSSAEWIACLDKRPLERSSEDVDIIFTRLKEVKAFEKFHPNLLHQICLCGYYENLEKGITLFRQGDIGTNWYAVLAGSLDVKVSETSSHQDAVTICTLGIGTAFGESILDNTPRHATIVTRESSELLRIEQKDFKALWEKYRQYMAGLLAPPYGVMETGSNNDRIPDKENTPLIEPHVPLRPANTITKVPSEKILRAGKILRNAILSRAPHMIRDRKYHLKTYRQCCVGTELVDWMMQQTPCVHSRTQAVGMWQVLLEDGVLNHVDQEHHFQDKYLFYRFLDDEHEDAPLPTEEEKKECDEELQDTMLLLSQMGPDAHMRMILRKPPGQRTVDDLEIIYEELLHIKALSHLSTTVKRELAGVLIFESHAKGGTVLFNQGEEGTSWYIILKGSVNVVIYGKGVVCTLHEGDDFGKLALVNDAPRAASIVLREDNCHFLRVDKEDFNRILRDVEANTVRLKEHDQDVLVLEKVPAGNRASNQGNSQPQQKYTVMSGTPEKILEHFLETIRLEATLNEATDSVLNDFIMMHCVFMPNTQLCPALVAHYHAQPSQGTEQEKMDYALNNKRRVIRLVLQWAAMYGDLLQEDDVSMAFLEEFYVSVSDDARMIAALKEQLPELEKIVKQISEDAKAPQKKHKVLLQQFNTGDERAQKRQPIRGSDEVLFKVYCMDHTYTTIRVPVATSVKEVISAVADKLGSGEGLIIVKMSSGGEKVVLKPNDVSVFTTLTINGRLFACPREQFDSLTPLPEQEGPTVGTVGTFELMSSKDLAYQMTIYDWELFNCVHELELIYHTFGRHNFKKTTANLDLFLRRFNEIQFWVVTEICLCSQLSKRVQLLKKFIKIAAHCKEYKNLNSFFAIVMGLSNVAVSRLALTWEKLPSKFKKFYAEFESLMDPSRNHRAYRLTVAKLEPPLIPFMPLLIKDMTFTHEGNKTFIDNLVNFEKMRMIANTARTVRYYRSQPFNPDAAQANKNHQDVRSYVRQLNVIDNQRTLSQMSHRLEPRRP"},
  "source": "PubChem BioAssay (NCATS)",
  "key": {"[1]": {"test": "qHTS Assay for Identifying Gametocytocidal Compounds (AID 743244);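 also: % is scaled to controls: 0 for no effect and ±100 for the full control effect; actives lower the fluorescent signal which means gametocytes are killed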", "details": "P. falciparum 3D7 stage III-V gametocytes, alamarBlue, 72 h; max response: stronger effect = lower value"}, "[2]": {"test": "qHTS assay for cell viability of HEK293 cells (AID 743288); also: % is scaled to controls: 0 for no effect and ±100 for the full control effect; nearly all actives have a fitted effect of over 50% in size", "details": "ATP luminescence (CellTiter-Glo), 18 h; max response: stronger effect = lower value", "method_in_brief": "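Environmental chemicals tested in qHTS format against parental HEK293 cells; 18 h treatment, 37 C; read-out ATP luminescence (CellTiter-Glo), 30 min RT development.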"}, "[3]": {"test": "qHTS assay for cell viability of the p53RE-bla HCT-116 cell line (AID 743292); also: % is scaled to controls: 0 for no effect and ±100 for the full control effect; nearly all actives have a fitted effect of over 55% in size", "method_in_brief": "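Viability of compound-treated p53RE-bla HCT-116 cells is taken from ATP-dependent luciferase luminescence. Treatment lasts 16 h at 37 C after a 5 h settling period; detection follows 30 min at room temperature.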"}, "[4]": {"test": "qHTS of pediatric cancer cell lines to identify multiple opportunities for drug repurposing: Primary screen for DAOY cells (AID 1347090); also: potency is read from the fitted curve at half-maximal effect; nearly all actives have a fitted effect of over 55% in size"}, "[5]": {"test": "qHTS of pediatric cancer cell lines to identify multiple opportunities for drug repurposing: Primary screen for BT-12 cells (AID 1347101); also: potency is read from the fitted curve at half-maximal effect; nearly all actives have a fitted effect of over 25% in size"}, "[6]": {"test": "qHTS of pediatric cancer cell lines to identify multiple opportunities for drug repurposing: Primary screen for Rh18 cells (AID 1347102); also: % is scaled to controls: 0 for no effect and ±100 for the full control effect; nearly all actives have a fitted effect of over 65% in size", "details": "Rh18 rhabdomyosarcoma viability, CellTiter-Glo luminescence, 48 h; at 46 µM (top of the series) unless noted"}, "[7]": {"test": "qHTS of pediatric cancer cell lines to identify multiple opportunities for drug repurposing: Primary screen for OHS-50 cells (AID 1347103); also: potency is read from the fitted curve at half-maximal effect; nearly all actives have a fitted effect of over 40% in size"}, "[8]": {"test": "qHTS to identify inhibitors of the type 1 interferon - major histocompatibility complex class I in skeletal muscle: primary screen against the NCATS Pharmaceutical Collection (AID 1347407);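 also: luminescence of HiBiT knocked into endogenous HLA-B as interferon-induced MHC class I level; % is scaled to controls: 0 for no effect and ±100 for the full control effect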", "details": "human skeletal muscle cells, IFN-b-induced MHC-I HiBiT luminescence, 24 h; at 45.9 µM (top of the series) unless noted", "method_in_brief": "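HLA-B HiBiT myoblasts, dexamethasone-free growth medium + 4 ng/ml IFN-b; compounds pinned 1 h after seeding, […] from 46 uM; 24 h, 37 C, 5% CO2; lytic HiBiT detection, 10 min RT, luminescence.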"}, "[9]": {"target": "Protein phosphatase 1D (Homo sapiens) (UniProt O15297)", "test": "RapidFire Mass Spectrometry qHTS Assay for Modulators of WT P53-Induced Phosphatase 1 (WIP1) (AID 1347424);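 also: amount of dephosphorylated VEPPL-S-QETFS peptide product formed by WIP1; plate controls were DMSO wells for no effect and GSK830371 inhibitor control at 10 µM for full effect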", "details": "WIP1 dephosphorylation of phosphopeptide, RapidFire MS; at 63 µM (top of the series) unless noted", "method_in_brief": "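10 nM WIP1 preincubated with compounds 1 hr at room temperature in pH 7.5 Tris buffer with 30 mM MgCl2, 1 mM TCEP; 2 uM VEPPL-pS-QETFS phosphopeptide for 5 min, formic acid quench; dephosphorylated product quantified by RapidFire MS against labelled standard.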"}, "[10]": {"target": "Calcium and integrin-binding protein 1 (Homo sapiens) (UniProt Q99828)", "test": "Primary qHTS for Identification of Calcium Integrin Binding Protein 1 (CIB1) Competitor (AID 1508620);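 also: GST tagged CIB1 binding a fluorescein labelled alphaIIb integrin peptide tracer; top concentration of the series differs between compounds; % is scaled to controls: 0 for no effect and ±100 for the full control effect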", "details": "CIB1-GST / FITC-alphaIIb peptide fluorescence polarization; at 114 µM (top of the series) unless noted"}, "[11]": {"test": "A High-Content qHTS Against Drug Library for the Identification of Small Molecules that Inhibit DYT1 Early Onset Primary Dystonia-Associated Cell Pathology (AID 1645839; calls by dose curve; also: potency is read from the fitted curve at half-maximal effect)", "method_in_brief": "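Flp-In T-REx 293 cells with tetracycline-inducible EGFP-delE hTOR1A (WT EGFP-hTOR1A as reference), 800 cells/well; compound added with tetracycline, 48 h at 37 C. Fixed, permeabilized cells imaged; %pathology (punctate TorsinA) primary, cell count counterscreen.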"}, "[12]": {"target": "Cytochrome P450 2D6 (Homo sapiens) (UniProt P10635)", "test": "Cytochrome P450 family 2 subfamily D member 6 (CYP2D6) small molecule antagonists: luciferase biochemical (cell-free) qHTS assay (AID 1645840; active = well fitted curve in the direction sought with a large enough effect in the repeat runs; an effect the other way counts as inactive or inconclusive; also: % is scaled to controls: 0 for no effect and ±100 for the full control effect; nearly all actives have a fitted effect of over 55% in size)", "method_in_brief": "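P450-Glo luminescent screen: recombinant CYP2D6 enzyme–proluciferin substrate mix preincubated with compound 10 min at room temperature, then NADPH regeneration added for 1 h at room temperature. Detection reagent added for 20 min; luciferin light read as relative luminescence units.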"}, "[13]": {"target": "Nuclear receptor subfamily 1 group I member 2 (Rattus norvegicus) (UniProt Q9R1A7)", "test": "qHTS assay for small molecule activators of the rat pregnane X receptor (rPXR) signaling pathway (AID 651751; call rule not given here; also: 0% is about no effect)", "details": "rPXR reporter cells, luciferase (One-Glo), 24 h"}, "[14]": {"test": "qHTS assay for small molecule activators of the human pregnane X receptor (PXR) signaling pathway (AID 720659; call rule not given here; also: 0% is about no effect)", "details": "DPX-2 HepG2 CYP3A4-luciferase, 24 h; at 92.3 µM (top of the series)"}, "[15]": {"target": "Fructose-bisphosphate aldolase A (Oryctolagus cuniculus) (UniProt P00883)", "test": "qHTS Assay for Inhibitors of Fructose-1,6-bisphosphate Aldolase from Giardia Lamblia: Rabbit FBPA Selectivity (AID 2794); also: % is scaled to controls: 0 for no effect and ±100 for the full control effect; nearly all actives have a fitted effect of over 60% in size", "details": "Rabbit muscle FBPA enzyme inhibition, selectivity counter-screen; at 57.5 µM (top of the series)", "method_in_brief": "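To triage Class I aldolase inhibitors, rabbit FBPA activity is followed through a glyceraldehyde-3-phosphate-linked enzyme cascade feeding AmpLite Red. Compounds (up to 57.5 uM final) sit 10 min with coupling enzymes before substrate; fluorescence is read 20 min later.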"}, "[16]": {"test": "qHTS Assay for Inhibitors of Fructose-1,6-bisphosphate Aldolase from Giardia Lamblia: Coupling assay counterscreen confirmation (AID 2795); also: % is scaled to controls: 0 for no effect and ±100 for the full control effect; nearly all actives have a fitted effect of over 55% in size", "details": "GAPDH coupling enzyme counterscreen, biochemical; at 57.5 µM (top of the series)", "method_in_brief": "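Compounds at up to 57.5 uM final tested against the coupling enzymes and resorufin-type fluorescent detection only, aldolase omitted. Ex 525 nm/em 598 nm read after 10 min enzyme-compound and 20 min substrate incubations, room temperature.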"}, "[17]": {"target": "Rap guanine nucleotide exchange factor 3 (Homo sapiens) (UniProt O95398)", "test": "Confirmatory qHTS for agonist of cAMP-regulated guanine nucleotide exchange factor 3 (EPAC1) (AID 1645881);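 also: EPAC1 catalysed release of BODIPY-GDP from Rap1B seen as fluorescence loss; nearly all actives have a fitted effect of over 75% in size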", "details": "EPAC1 Rap1B BODIPY-GDP exchange fluorescence, 100% = cAMP control response; at 154 µM (top of the series)"}, "[18]": {"target": "Rap guanine nucleotide exchange factor 4 (Homo sapiens) (UniProt Q8WZA2)", "test": "Confirmatory qHTS for agonist of cAMP-regulated guanine nucleotide exchange factor 4 (EPAC2) (AID 1645884);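 also: nucleotide exchange releases bodipy-GDP from Rap1 and this lowers its fluorescence; % is scaled to controls: 0 for no effect and ±100 for the full control effect; nearly all actives have a fitted effect of over 65% in size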", "details": "EPAC2 GEF activity, Rap1B-BODIPY-GDP fluorescence, percent relative to cAMP agonist control; at 17.1 µM (top of the series) unless noted"}, "[19]": {"target": "Rap guanine nucleotide exchange factor 4 (Homo sapiens) (UniProt Q8WZA2)", "test": "Confirmatory qHTS for antagonist of cAMP-regulated guanine nucleotide exchange factor 4 (EPAC2) (AID 1645885); also: % is scaled to controls: 0 for no effect and ±100 for the full control effect; nearly all actives have a fitted effect of over 25% in size", "details": "EPAC2 Rap1B-BODIPY-GDP exchange fluorescence, biochemical; at 12.7 µM (top of the series) unless noted"}, "[20]": {"target": "Rap guanine nucleotide exchange factor 3 (Homo sapiens) (UniProt O95398)", "test": "Counterscreen qHTS for antagonist of cAMP-regulated guanine nucleotide exchange factor 3 (EPAC1) (AID 1645888);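 also: fluorescence loss as bound BODIPY-GDP is released from Rap1B; % of control where 0% means no effect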", "details": "Rap1B-BODIPY-GDP nucleotide exchange, fluorescence; at 30.8 µM (top of the series) unless noted", "method_in_brief": "(§1)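 Rap1B–BODIPY-GDP (250 nM) with 50 uM GDP; compounds pin-transferred to 9.74 nM–152 uM final (activator) or from 7.32 nM upwards (inhibitor). Fluorescence Ex/Em 480/540 nm read at 5 and 30 min, then after adding cAMP or buffer, at room temperature.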"}, "[21]": {"target": "Rap guanine nucleotide exchange factor 3 (Homo sapiens) (UniProt O95398)", "test": "Counterscreen qHTS for agonist of cAMP-regulated guanine nucleotide exchange factor 3 (EPAC1) (AID 1645889)", "details": "EPAC1 Rap1B-BODIPY-GDP exchange, fluorescence; at 30.8 µM (top of the series) unless noted", "method_in_brief": "as §1"}},
  "note": "“And” between values parts separate entries of the source, which are not always exact repeats. Identical values can stand only once. The list shows a part of the results, in another mix than the full data. Results filed as inconclusive are left out. The source made the active and inactive calls. Unless noted, calls follow the shape of the dose curve; as a rule, active = well fitted curve in the direction sought with a large enough effect; inconclusive = small, poorly fitted or top-dose-only effect, or another doubt; inactive = no such curve, though single readings can be large; an effect the other way counts as inactive or inconclusive.",
  "data": [
    {"smiles": "Cc1cc([N+](=O)[O-])cc([N+](=O)[O-])c1O", "values": [
      {"measurement": "max response", "setting": "[1]", "value": "inactive: 39.1%"},
      {"measurement": "max response", "setting": "[2]", "value": "inactive: -13.6%"},
      {"measurement": "Potency", "setting": "[3]", "value": "inactive"},
      {"measurement": "Potency", "setting": "[4]", "value": "active: 38.6 µM"},
      {"measurement": "Potency", "setting": "[5]", "value": "active: 25.2 µM"},
      {"measurement": "activity change, negative = cytotoxic", "setting": "[6]", "value": "inactive: -19% [at 92.7 µM]"},
      {"measurement": "Potency", "setting": "[7]", "value": "active: 50.2 µM"},
      {"measurement": "activity change, negative = inhibition", "setting": "[8]", "value": "inactive: -16.5% [at 92.2 µM]"},
      {"measurement": "activity change, negative = inhibition", "setting": "[9]", "value": "inactive: -0.394% [at 128 µM]"},
      {"measurement": "activity change, negative = inhibition", "setting": "[10]", "value": "inactive: -7.23% [at 228 µM]"},
      {"measurement": "Potency", "setting": "[11]", "value": "active: 28.2 µM"},
      {"measurement": "Potency", "setting": "[12]", "value": "inactive"},
      {"measurement": "max response", "setting": "[13]", "value": "inactive: -20.2% and inactive: -16.9%"},
      {"measurement": "activation", "setting": "[14]", "value": "inactive: -7.53% and inactive: 21%"}
    ]},
    {"smiles": "C[N+]1=C2C=CC=CC=C2SC12C([N+](=O)[O-])=CC([N+](=O)[O-])=C[C-]2[N+](=O)[O-]", "note": "(stereo unspecified)", "values": [
      {"measurement": "activity, negative = inhibition", "setting": "[15]", "value": "inactive: -24.9%"},
      {"measurement": "activity change, negative = inhibition", "setting": "[16]", "value": "inactive: -27.3%"},
      {"measurement": "activation", "setting": "[17]", "value": "inactive: -3.47%"},
      {"measurement": "activation", "setting": "[18]", "value": "inactive: 1.06% [at 154 µM]"},
      {"measurement": "activity change, negative = inhibition", "setting": "[19]", "value": "inactive: 7.02% [at 114 µM]"},
      {"measurement": "activity change, negative = inhibition", "setting": "[20]", "value": "inactive: 6.67% [at 154 µM]"},
      {"measurement": "activation", "setting": "[21]", "value": "inactive: 1.81% [at 154 µM]"}
    ]}
  ]
}
